Data on one compound can be found in patent publication US5175158A, “Condensed diazepinones, processes for preparing them and pharmaceutical compositions containing these compounds” (Dr. Karl Thomae, GmbH, priority 1987, dated 1992).

The test deals with muscarinic receptors (cerebral cortex). As to the kind of experiment: Receptor binding test in vitro, cerebral cortex (3H-N-methylscopolamine displacement). Conditions: 0.3 nanomolar 3H-NMS, 30° C., 45 minutes, pH 7.4. More on the design: species or system rat (male Sprague-Dawley).

Each structure is given as a SMILES string.

One may read the IC50 as the point on the concentration scale where inhibition reaches its midpoint. The low end stands for higher potency, the high end for lower potency. For the compound `CCN(CC)CC1CCCCN1CC(=O)N1c2ccccc2C(=O)Nc2cccnc21` (stereo not shown) [Substance E, 11-[[2-[(diethylamino)methyl]-1-piperidinyl]acetyl]-5,11-dihydro-6H-pyrido [2,3-b][1,4]benzodiazepin-6-one, reference compound], the IC50 is 1200 nM.
